Drawing on ChEMBL document CHEMBL1131715 (Bioorg Med Chem Lett, 1999), this text covers Ki for two molecules.

The test can be described thus: Inhibitory activity against zinc-dependent Glutamate Carboxypeptidase G.

Broadly, the Ki is a dissociation constant, usually derived from enzyme kinetics or from competition with a known ligand. Low values mean a stronger hold on the target, high ones a looser hold on the target. Molecule `CP(O)(=S)N[C@@H](CCC(=O)O)C(=O)O` (some centres not stated) showed a Ki of 6.2 µM.
Consider `CCP(O)(=S)N[C@@H](CCC(=O)O)C(=O)O` (some centres not stated), for which the affinity corresponds to a Ki of 1.24 µM.
